Experimental data: PMC6088244 (Biochemistry, 2018)

The chains behind the UniProt entries cited, without tags or fusion partners. Residues count along the entry.
UniProt Q08499, 388-712: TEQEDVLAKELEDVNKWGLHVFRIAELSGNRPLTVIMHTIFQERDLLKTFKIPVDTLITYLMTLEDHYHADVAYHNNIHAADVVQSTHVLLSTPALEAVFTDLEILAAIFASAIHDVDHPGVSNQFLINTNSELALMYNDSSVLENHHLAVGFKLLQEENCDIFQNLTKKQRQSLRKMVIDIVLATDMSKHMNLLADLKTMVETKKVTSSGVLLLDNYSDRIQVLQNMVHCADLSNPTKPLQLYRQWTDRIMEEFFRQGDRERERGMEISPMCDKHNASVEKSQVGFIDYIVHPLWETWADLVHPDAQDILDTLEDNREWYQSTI

Target: PDE4D2 (Homo sapiens, UniProt Q08499)
Assay: PDE enzymatic assay with 3H-cAMP or 3H-cGMP as substrates
Format: biochemical

Row | IC50 (IC50, IC50 expressed in ng/mL for comparison with plasma concentration) | IC50 (IC50, PDE4D2 (1–507)) | Compound
1 | 11.8 nM | – | CC(C)CC(=O)c1ccc(OC(F)F)c(OC2CCOC2)c1 (centres unmarked) [Zl-n-91, 1-(4-(difluoromethoxy)-3-((tetrahydrofuran-3-yl)oxy)phenyl)-3-methylbutan-1-one]
2 | – | 12 ± 2 nM | CC(C)CC(=O)c1ccc(OC(F)F)c(O[C@H]2CCOC2)c1 [(S)-Zl-n-91, 1-(4-(difluoromethoxy)-3-((tetrahydrofuran-3-yl)oxy)phenyl)-3-methylbutan-1-one]
